The list shows a part of the results, in another mix than the full data. Calls of active or inactive are those of the source. Rule as the data show it: active = activation above about 23%; inactive = the rest.

Sequences of proteins named here, by UniProt entry; tags and fusion partners are left off. Residues count along the entry.
UniProt P37231, 232-505 limits assumed: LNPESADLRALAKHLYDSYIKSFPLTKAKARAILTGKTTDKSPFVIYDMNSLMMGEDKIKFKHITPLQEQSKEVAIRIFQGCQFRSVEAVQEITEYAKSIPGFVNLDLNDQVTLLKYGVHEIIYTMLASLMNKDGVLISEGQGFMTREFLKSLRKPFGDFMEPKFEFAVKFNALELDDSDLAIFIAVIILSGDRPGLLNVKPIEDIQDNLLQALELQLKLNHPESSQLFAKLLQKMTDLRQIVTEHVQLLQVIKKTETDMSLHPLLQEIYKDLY
UniProt Q9Y6Q9, whole entry partner: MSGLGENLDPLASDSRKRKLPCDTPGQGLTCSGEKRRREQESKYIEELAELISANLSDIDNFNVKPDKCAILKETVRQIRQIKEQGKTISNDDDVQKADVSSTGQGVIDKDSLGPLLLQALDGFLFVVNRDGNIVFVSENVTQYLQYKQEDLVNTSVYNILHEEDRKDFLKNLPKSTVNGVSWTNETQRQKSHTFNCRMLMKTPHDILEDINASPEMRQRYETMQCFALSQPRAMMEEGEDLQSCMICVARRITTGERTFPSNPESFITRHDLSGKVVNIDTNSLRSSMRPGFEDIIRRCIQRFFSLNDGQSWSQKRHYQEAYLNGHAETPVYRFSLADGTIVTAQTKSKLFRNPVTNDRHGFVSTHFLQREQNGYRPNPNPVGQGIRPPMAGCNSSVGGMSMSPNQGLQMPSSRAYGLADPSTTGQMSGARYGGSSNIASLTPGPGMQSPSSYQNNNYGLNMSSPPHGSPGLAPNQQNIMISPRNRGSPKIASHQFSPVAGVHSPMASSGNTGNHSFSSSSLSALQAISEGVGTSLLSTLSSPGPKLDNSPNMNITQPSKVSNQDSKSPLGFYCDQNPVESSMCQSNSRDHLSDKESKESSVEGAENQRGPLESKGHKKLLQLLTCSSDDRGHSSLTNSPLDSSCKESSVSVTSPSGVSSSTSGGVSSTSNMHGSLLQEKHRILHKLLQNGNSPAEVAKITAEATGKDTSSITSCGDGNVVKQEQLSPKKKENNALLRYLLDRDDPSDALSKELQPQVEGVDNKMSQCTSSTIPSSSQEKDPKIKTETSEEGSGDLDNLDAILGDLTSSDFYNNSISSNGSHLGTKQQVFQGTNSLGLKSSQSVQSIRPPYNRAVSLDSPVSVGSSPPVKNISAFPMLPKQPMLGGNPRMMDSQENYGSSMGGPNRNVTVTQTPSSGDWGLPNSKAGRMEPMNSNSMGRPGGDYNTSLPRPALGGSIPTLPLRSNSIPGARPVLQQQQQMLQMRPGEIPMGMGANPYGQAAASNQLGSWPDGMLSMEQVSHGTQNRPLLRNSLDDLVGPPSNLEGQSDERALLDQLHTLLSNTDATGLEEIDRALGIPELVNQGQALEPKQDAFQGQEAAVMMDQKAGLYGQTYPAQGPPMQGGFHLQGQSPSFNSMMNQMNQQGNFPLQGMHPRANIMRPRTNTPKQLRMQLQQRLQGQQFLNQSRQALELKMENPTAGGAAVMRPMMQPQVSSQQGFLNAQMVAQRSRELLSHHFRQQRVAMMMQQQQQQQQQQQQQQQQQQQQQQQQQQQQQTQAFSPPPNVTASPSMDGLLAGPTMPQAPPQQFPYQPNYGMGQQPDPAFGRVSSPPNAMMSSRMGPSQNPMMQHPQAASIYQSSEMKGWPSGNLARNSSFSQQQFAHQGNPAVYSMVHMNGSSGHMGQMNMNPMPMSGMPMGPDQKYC

The target of the assay is Peroxisome proliferator-activated receptor gamma (Homo sapiens) (UniProt P37231). The assay is described as follows: PPARgamma agonists recruiting SRC-3 coactivator, primary screen, biochemical (AID 731).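 Also: 0% = DMSO and 100% = reference agonist.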 The settings on record: biochemical PPARgamma/SRC-3 coactivator recruitment assay; at 8 µM; hits give high values.
Regarding `COc1ccc(NC2CCN(CCc3ccccc3)CC2)c(OC)c1`, the activation was inactive: 4.07%.

Consider `O=C(NCC1(N2CCOCC2)CCCCC1)c1cc2ccccc2o1`, for which the activation is inactive: 2.62%. The figure for `O=C(OC1CN2CCC1CC2)C1c2ccccc2Oc2ccccc21` (stereo not given) is inactive: -3.47%. In the case of `CCOC(=O)N1CCC(Nc2ccc(OC)cc2)CC1`, the activation was inactive: 0.87%. The figure for `COc1ccc(C(=O)NCC2(N3CCCCC3)CCCCC2)c(OC)c1OC` is inactive: -0.95%; for `CN1CCC(Nc2cccc(F)c2)CC1` it is inactive: 5.74%; for `CC(C)c1ccc(NC2CCN(C(=O)OC(C)(C)C)CC2)cc1` it is inactive: -4.22%. With `CN(C)c1cccc(C(=O)NCC2(N3CCCCC3)CCCCC2)c1` the figure was inactive: 0.66%; with `COc1ccc(CN(CCCl)CCCl)cc1Cl`, inactive: -2.7%; with `O=C(NCC1(N2CCOCC2)CCCCC1)c1cc(=O)[nH]c2ccccc12`, inactive: -10.8%. The figure for `CN1CCN(CCOC(=O)C(O)(c2ccccc2)c2ccccc2)CC1` is inactive: -1.89%; for `COc1ccc(NC2CCN(C(=O)OC(C)(C)C)CC2)cc1` it is inactive: -2.57%. Turning to `N#CC1(Nc2ccccc2)CCN(CCc2ccccc2)CC1`, the activation was inactive: 4.74%. With `O=C(NCC1(N2CCCCC2)CCCCC1)c1cccc([N+](=O)[O-])c1` the figure was inactive: -4.07%; with `c1ccc(CN2CCC(Nc3ccccc3)CC2)cc1`, inactive: -8.95%; with `N#Cc1ccc(C(=O)NCC2(N3CCCCC3)CCCCC2)cc1`, inactive: 0.02%. Consider `N/C(=N\O)c1c(N)no[n+]1[O-]`, for which the activation was inactive: 8.49%. With `O=C(OC1CN2CCC1CC2)C1c2ccccc2C=Cc2ccccc21` (stereo not given) the figure was inactive: -0.6%. With `COc1ccc(C(=O)NCC2(N3CCOCC3)CCCCC2)cc1OC` the figure was inactive: -2.45%. As to `COc1cc(OC)cc(C(=O)NCC2(N3CCOCC3)CCCCC2)c1`, the activation was inactive: 4.49%. The figure for `CCC(CO)(C(=O)OC1CN2CCC1CC2)c1ccccc1` (stereo not given) is inactive: -1.49%; for `CCOc1ncccc1C(=O)NCC1(N2CCOCC2)CCCCC1` it is inactive: 9.43%. For `CC(C)(C)OC(=O)N1CCC(Nc2ccccc2)CC1`, the activation was inactive: 5.3%.

Consider `CCN1CCC(Nc2cccc(F)c2)CC1`, for which the activation was inactive: 4.11%. With `CN(C)c1ccc(C(=O)NCC2(N3CCCCC3)CCCCC2)cc1`, the activation was inactive: 9.17%.

Source of the values: PubChem BioAssay AID731 (The Scripps Research Institute Molecular Screening Center, 2007).
